The source of these data is publication PMC9574513 (The Journal of Biological Chemistry, 2022).

Protein sequences, listed by entry. Tags and fused reporters are not part of them. Residues count along the entry.
UniProt U7E0F5, 1-524: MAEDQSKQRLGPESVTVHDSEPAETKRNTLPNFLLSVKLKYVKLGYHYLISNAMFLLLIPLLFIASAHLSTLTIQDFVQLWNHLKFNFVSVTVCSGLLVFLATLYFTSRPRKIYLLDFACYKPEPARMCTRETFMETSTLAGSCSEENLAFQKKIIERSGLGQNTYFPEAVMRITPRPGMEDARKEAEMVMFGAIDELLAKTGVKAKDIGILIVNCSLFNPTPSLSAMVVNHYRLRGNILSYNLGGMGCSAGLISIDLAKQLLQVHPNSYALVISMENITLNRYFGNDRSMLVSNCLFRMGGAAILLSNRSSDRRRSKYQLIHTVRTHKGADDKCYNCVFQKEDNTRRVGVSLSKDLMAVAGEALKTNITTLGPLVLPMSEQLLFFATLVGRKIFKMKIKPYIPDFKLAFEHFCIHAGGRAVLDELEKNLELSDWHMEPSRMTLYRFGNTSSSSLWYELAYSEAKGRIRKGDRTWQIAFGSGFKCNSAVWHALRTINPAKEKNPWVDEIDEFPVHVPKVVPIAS

The target of assay [1] is T1, PtKCS2 (Populus trichocarpa, UniProt A0A2K1YQQ5).
T1 sequence (A0A2K1YQQ5 1-524): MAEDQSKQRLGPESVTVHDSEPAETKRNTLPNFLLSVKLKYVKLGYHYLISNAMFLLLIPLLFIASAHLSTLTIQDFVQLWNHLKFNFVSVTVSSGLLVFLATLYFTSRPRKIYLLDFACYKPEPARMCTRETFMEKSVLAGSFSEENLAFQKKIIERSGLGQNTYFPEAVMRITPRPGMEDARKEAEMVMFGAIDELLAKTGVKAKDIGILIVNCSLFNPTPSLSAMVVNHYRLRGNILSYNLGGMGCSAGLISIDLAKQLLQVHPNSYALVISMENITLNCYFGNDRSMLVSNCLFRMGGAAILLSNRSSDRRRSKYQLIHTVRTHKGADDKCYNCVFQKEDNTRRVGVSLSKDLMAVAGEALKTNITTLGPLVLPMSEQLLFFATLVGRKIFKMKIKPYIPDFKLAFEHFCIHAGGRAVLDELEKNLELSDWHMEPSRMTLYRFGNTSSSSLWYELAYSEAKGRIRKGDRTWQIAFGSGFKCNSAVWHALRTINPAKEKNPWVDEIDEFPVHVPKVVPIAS
In kind it is cell-based. Particulars: inhibition; 30 °C, 4 days, yeast culture.

Assay [2] has as its target T2, PtKCS4 (Populus trichocarpa, UniProt U7E0F5).
T2 sequence (U7E0F5 1-524): T1 sequence (A0A2K1YQQ5 1-524) with S94C, K137T, V139T, F144C, C283R
In kind it is cell-based. Particulars: inhibition; 30 °C, 4 days, yeast culture.

Positions count from the first letter of the chain named.

As for `COP(=S)(OC)SCC(=O)N(c1ccc(Cl)cc1)C(C)C` [anilofos], the “proportion of total VLC-FAMEs vs uninhibited control at 2 μM” value in assay [1] was “whereas alachlor and anilofos slightly reduced activity”; in assay [2], “whereas alachlor and anilofos slightly reduced activity”.
